Papp A→B and Papp data for one compound are collected here from article PMC9490236, “Accurate de novo design of membrane-traversing macrocycles” (Cell, 2022).

Data set [1] can be described thus: Caco-2 permeability assay (apical to basolateral). The data set is classed as in vitro ADME, human. The settings on record: average of 3 replicates, read-out: Caco_Papp_Average. On the procedure: Human colon adenocarcinoma-derived Caco-2 cell line was used as a model system to investigate the intestinal epithelial permeability of our designs. Caco-2 cells were propagated in T125 flasks (Corning, Merck) using Dulbecco’s modified Eagle medium supplemented with 10% (v/v) fetal bovine serum, 1% (v/v) nonessential amino acids, and 1% (v/v) penicillin-streptomycin (Gibco, Thermo Fisher Scientific) at 37°C in an atmosphere of 5% CO2. Cells were subcultured when they reached 80% confluence.
The permeability of designed peptides was evaluated using an accelerated 6-day Caco-2 permeability assay as described previously ([Sevin et al., 2013]). In brief, cells were seeded into the 12-well Transwell plates with 0.4 μm polyester membrane inserts (Corning, Merck) to give 4.0 × 10^5 cells/well. The complete assay medium contained Dulbecco’s modified Eagle medium supplemented with 10% (v/v) fetal bovine serum, 1% (v/v) nonessential amino acids, and 0.4 μg/mL puromycin. The medium in plates was renewed every second day. […] The peptide concentration of solutions in the apical and basolateral compartments was subsequently quantified using LC-MS (Qstar Elite, AB Sciex Australia) to evaluate the transmembrane flux of peptides in the apical-to-basolateral direction. […]
For orientation: Caco-2 monolayers are a common model of the intestinal barrier.

The nature of data set [2]: Parallel artificial membrane permeability assay (PAMPA). For orientation: PAMPA measures passive passage across an artificial lipid membrane.

The term Papp denotes a coefficient for how fast a substance crosses the barrier. Higher therefore signals ready permeation. Turning to `CC(C)C[C@@H]1NC(=O)[C@H]2CCCN2C(=O)[C@@H](CC(C)C)NC(=O)[C@@H](CC(C)C)NC(=O)[C@@H](CC(C)C)N(C)C(=O)[C@H](C(C)C)NC(=O)[C@@H](C)NC(=O)[C@@H](C)N(C)C(=O)[C@@H]2CCCN2C1=O` (relative stereo) [Design D9.16, PRO *DALA DALA VAL *DLEU DLEU DLEU DPRO LEU], the Papp A→B in data set [1] was 2.48 ×10⁻⁶ cm/s. The Papp in data set [2] is 3.27 ×10⁻⁶ cm/s.
